{"source": "paper PMC11546867", "system": "CCn1c(=NN=c2sc3cc(S(=O)(=O)O)ccc3n2CC)sc2cc(S(=O)(=O)O)ccc21", "experiment": "purified protein", "conditions": "0.25 mM H2O2, 50 mM tartrate pH 3, 30 °C", "data": [{"substance": "CgaDyP1 (Coriolopsis gallica)", "values": [{"measurement": "Km", "result": "140 ± 20", "unit": "µM"}, {"measurement": "kcat", "result": 2.95, "unit": "s⁻¹"}]}]}
